Sequences of proteins named here, by UniProt entry; tags and fusion partners are left off.
UniProt Q86WV6, whole entry R293Q: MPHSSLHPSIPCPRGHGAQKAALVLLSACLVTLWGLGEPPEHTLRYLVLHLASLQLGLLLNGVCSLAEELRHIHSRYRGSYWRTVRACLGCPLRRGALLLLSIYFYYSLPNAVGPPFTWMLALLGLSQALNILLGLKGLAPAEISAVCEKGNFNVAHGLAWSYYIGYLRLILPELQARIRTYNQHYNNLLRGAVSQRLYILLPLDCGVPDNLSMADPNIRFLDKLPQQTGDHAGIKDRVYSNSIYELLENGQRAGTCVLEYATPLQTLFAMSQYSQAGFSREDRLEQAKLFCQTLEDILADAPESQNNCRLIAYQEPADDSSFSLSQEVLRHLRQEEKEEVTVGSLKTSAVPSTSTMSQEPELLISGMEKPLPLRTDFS
UniProt Q86WV6, whole entry, looked up, stated change not applied: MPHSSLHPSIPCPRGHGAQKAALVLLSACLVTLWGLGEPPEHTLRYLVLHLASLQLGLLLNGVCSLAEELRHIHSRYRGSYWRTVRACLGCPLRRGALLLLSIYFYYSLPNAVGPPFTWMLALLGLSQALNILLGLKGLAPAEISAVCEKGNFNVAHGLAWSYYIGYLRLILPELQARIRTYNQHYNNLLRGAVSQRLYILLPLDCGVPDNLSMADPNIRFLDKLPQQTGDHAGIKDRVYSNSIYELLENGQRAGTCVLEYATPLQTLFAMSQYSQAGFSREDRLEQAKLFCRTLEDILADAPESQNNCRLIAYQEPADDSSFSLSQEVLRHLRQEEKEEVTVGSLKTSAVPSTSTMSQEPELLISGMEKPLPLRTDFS
UniProt Q86WV6, whole entry G230A/R293Q: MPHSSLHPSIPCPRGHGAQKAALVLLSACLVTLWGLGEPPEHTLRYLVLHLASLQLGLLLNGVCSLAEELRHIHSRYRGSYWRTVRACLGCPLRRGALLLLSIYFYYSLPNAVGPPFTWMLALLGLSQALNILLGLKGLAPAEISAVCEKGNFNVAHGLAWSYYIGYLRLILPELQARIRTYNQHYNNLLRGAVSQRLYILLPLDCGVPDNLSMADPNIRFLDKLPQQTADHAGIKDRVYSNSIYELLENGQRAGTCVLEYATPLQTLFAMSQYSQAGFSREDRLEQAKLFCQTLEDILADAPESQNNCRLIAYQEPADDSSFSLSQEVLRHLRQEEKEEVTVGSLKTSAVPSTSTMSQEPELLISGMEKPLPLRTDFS

In ChEMBL document CHEMBL5316347, “Design, Synthesis, and Biological Evaluation of Bipyridazine Derivatives as Stimulator of Interferon Genes (STING) Receptor Agonists” (J Med Chem, 2023):

Columns and labels:
[1] = system: Stimulator of interferon genes protein (Homo sapiens), Q86WV6 [R293Q]; details: filed as agonist, dose 50.0 µM
[2] = system: Stimulator of interferon genes protein (Homo sapiens), Q86WV6 [UNDEFINED MUTATION]; details: filed as agonist, dose 50.0 µM
[3] = target: T1, Stimulator of interferon genes protein (Mus musculus, UniProt Q3TBT3); assay: Agonist activity at mouse STING in mouse RAW-Lucia ISG cells incubated for 24 hrs in presence of PMA by luciferase reporter assay; assay type: cell-based
T1 sequence (Q3TBT3 whole entry): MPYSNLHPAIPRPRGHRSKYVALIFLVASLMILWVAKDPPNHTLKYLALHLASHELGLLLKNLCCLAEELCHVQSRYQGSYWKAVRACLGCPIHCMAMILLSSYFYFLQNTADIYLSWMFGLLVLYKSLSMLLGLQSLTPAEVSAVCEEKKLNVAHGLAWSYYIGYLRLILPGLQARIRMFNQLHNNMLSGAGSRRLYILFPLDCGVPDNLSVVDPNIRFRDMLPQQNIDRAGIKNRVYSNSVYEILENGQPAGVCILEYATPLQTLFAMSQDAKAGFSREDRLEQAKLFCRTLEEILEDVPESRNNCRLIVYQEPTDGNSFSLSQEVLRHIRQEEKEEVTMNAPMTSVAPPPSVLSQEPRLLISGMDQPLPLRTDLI

[4] = target: Stimulator of interferon genes protein (Homo sapiens, UniProt Q86WV6); details: filed as agonist, dose 50.0 µM
[5] = system: Stimulator of interferon genes protein (Homo sapiens), Q86WV6 [G230A,R293Q]; details: filed as agonist, dose 50.0 µM

ΔTm [1]: 6 °C
ΔTm [2]: 8.5 °C
EC50 [3]: 135 µM
ΔTm [4]: 6 °C
ΔTm [5]: 13.5 °C
Compound: O=C(Nc1cc(F)c(F)cc1C(=O)O)c1ccc(-n2ccnc2)nn1
